Test results reported in patent US10047096B2, “Substituted pyridobenzodiazepinone-derivatives and use thereof” (Bayer Pharma Aktiengesellschaft, priority 2014, dated 2018).

Sequences of proteins named here, by UniProt entry; tags and fusion partners are left off. A change or cut given only in a name is not applied to a line headed by its entry.
UniProt P09619: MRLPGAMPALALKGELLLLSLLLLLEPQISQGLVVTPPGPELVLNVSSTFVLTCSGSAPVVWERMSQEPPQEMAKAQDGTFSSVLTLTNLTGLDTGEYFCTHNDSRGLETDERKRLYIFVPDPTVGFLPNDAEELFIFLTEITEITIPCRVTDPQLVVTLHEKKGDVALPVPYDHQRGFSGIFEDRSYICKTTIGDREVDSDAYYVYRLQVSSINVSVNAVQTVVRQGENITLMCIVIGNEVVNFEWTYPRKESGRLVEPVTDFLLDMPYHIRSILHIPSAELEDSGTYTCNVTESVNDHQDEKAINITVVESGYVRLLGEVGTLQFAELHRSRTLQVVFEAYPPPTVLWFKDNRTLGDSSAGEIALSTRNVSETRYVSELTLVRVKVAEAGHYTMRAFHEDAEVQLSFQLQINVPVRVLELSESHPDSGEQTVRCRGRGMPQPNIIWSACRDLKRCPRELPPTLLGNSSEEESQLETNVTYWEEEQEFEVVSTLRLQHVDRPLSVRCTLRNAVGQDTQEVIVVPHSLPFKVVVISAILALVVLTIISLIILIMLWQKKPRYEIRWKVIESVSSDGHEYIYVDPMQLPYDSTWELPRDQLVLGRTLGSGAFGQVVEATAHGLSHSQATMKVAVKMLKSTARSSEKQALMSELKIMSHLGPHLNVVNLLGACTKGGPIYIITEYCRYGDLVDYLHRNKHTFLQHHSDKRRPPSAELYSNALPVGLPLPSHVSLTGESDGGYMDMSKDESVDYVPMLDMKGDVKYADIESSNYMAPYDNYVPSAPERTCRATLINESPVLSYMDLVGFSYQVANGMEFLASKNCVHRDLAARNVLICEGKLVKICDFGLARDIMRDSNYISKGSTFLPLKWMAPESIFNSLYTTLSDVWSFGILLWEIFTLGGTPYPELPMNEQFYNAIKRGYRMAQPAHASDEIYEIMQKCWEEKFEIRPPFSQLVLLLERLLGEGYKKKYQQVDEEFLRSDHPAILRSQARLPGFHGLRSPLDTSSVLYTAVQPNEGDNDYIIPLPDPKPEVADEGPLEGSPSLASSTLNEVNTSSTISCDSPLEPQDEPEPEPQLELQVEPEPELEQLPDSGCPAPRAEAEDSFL

Biological target: human PDGFRβ (Homo sapiens (Human), UniProt P09619)
Assay: PDGFRβ kinase assay (PDGFRβ-HTRF)
Type: biochemical
Settings: 10 μM ATP; some mean values from multiple determinations
Protocol: The PDGFRβ-inhibitory activity of the inventive compounds was determined in the PDGFRβ-HTRF assay described hereinafter.
The IC50 values were calculated by a 4-parameter fit.

SMILES | IC50 [nM]
Cc1cc(F)c(Nc2ccnc3c2C(=O)Nc2cc(CN4CCCC(OCC5CCC5)C4)ccc2N3)cc1O (racemic) [Example 60, rac-8-{[3-(Cyclobutylmethoxy)piperidin-1-yl]methyl}-4-[(2-fluoro-5-hydroxy-4-methylphenyl)amino]-6,11-dihydro-5H-pyrido[2,3-b][1,5]benzodiazepin-5-one] | 3.83
CCN(CC)C(=O)COC1CCCN(Cc2ccc3c(c2)NC(=O)c2c(Nc4cc(O)c(C)cc4F)ccnc2N3)C1 (racemic) [Example 61, rac-N,N-Diethyl-2-{[1-({4-[(2-fluoro-5-hydroxy-4-methylphenyl)amino]-5-oxo-6,11-dihydro-5H-pyrido[2,3-b][1,5]benzodiazepin-8-yl}methyl)piperidin-3-yl]oxy}acetamide] | 4.55
Cc1cc(F)c(Nc2ccnc3c2C(=O)Nc2cc(CN4CCCC(Oc5ccccc5)C4)ccc2N3)cc1O (racemic) [Example 72, rac-4-[(2-Fluoro-5-hydroxy-4-methylphenyl)amino]-8-[(3-phenoxypiperidin-1-yl)methyl]-6,11-dihydro-5H-pyrido[2,3-b][1,5]benzodiazepin-5-one] | 9.59
Cc1cc(F)c(Nc2ccnc3c2C(=O)Nc2cc(C(=O)N4CCC(O)C4)ccc2N3)cc1O (racemic) [Example 86, rac-4-[(2-Fluoro-5-hydroxy-4-methylphenyl)amino]-8-[(3-hydroxypyrrolidin-1-yl)carbonyl]-6,11-dihydro-5H-pyrido[2,3-b][1,5]benzodiazepin-5-one] | 8.61
Cc1cc(F)c(Nc2ccnc3c2C(=O)Nc2cc(CN4CCCC(C)(O)C4)ccc2N3)cc1O (racemic) [Example 88, rac-4-[(2-Fluoro-5-hydroxy-4-methylphenyl)amino]-8-[(3-hydroxy-3-methylpiperidin-1-yl)methyl]-6,11-dihydro-5H-pyrido[2,3-b][1,5]benzodiazepin-5-one] | 1.7
Cc1cc(F)c(Nc2ccnc3c2C(=O)Nc2cc(CNC(C)CO)ccc2N3)cc1O (racemic) [Example 168, rac-4-[(2-Fluoro-5-hydroxy-4-methylphenyl)amino]-8-{[(1-hydroxypropan-2-yl)amino]methyl}-6,11-dihydro-5H-pyrido[2,3-b][1,5]benzodiazepin-5-one] | 1.9
Cc1cc(F)c(Nc2ccnc3c2C(=O)Nc2cc(CN4CC(O)C(NCCO)C4)ccc2N3)cc1O (stereo not drawn) [Example 91, 4-[(2-Fluoro-5-hydroxy-4-methylphenyl)amino]-8-({3-hydroxy-4-[(2-hydroxyethyl)amino]pyrrolidin-1-yl}methyl)-6,11-dihydro-5H-pyrido[2,3-b][1,5]benzodiazepin-5-one] | 1.66
Cc1ccc(O)cc1Nc1ccnc2c1C(=O)Nc1cc(CNC(CO)c3ccccc3)ccc1N2 (stereo not drawn) [Example 106] | 3.86
COc1ccccc1CNCc1ccc2c(c1)NC(=O)c1c(Nc3cc(O)ccc3C)ccnc1N2 [Example 108] | 2.87
Cc1ccc(O)cc1Nc1ccnc2c1C(=O)Nc1cc(CNCc3ccccc3F)ccc1N2 [Example 121] | 5.74
Cc1ccc(O)cc1Nc1ccnc2c1C(=O)Nc1cc(CN[C@H](CO)c3ccccc3)ccc1N2 [Example 128] | 3.6
Cc1ccc(O)cc1Nc1ccnc2c1C(=O)Nc1cc(CNC3(C)CCC3)ccc1N2 [Example 134] | 2.82
Cc1cc(F)c(Nc2ccnc3c2C(=O)Nc2cc(CN4CCC(CCO)CC4)ccc2N3)cc1O [Example 163, 4-[(2-Fluoro-5-hydroxy-4-methylphenyl)amino]-8-{[4-(2-hydroxyethyl)piperidin-1-yl]methyl}-6,11-dihydro-5H-pyrido[2,3-b][1,5]benzodiazepin-5-one] | 3.03
Cc1cc(F)c(Nc2ccnc3c2C(=O)Nc2cc(CN4CCC(C)(O)C(C)C4)ccc2N3)cc1O (stereo not drawn) [Example 165, 4-[(2-Fluoro-5-hydroxy-4-methylphenyl)amino]-8-[(4-hydroxy-3,4-dimethylpiperidin-1-yl)methyl]-6,11-dihydro-5H-pyrido[2,3-b][1,5]benzodiazepin-5-one] | 4.61
Cc1cc(F)c(Nc2ccnc3c2C(=O)Nc2cc(CN4CCC[C@@H](O)C4)ccc2N3)cc1O [Example 224, 4-[(2-Fluoro-5-hydroxy-4-methylphenyl)amino]-8-{[(3R)-3-hydroxypiperidin-1-yl]methyl}-6,11-dihydro-5H-pyrido[2,3-b][1,5]benzodiazepin-5-one] | 1.63

Second part, the molecule after the results:

IC50 [nM] | SMILES
1.05 | Cc1cc(F)c(Nc2ccnc3c2C(=O)Nc2cc(CN4CCC(O)C4)ccc2N3)cc1O (racemic) [Example 65, rac-4-[(2-Fluoro-5-hydroxy-4-methylphenyl)amino]-8-[(3-hydroxypyrrolidin-1-yl)methyl]-6,11-dihydro-5H-pyrido[2,3-b][1,5]benzodiazepin-5-one]
0.985 | Cc1cc(F)c(Nc2ccnc3c2C(=O)Nc2cc(CN4CCCC(O)C4)ccc2N3)cc1O (racemic) [Example 69, rac-4-[(2-Fluoro-5-hydroxy-4-methylphenyl)amino]-8-[(3-hydroxypiperidin-1-yl)methyl]-6,11-dihydro-5H-pyrido[2,3-b][1,5]benzodiazepin-5-one]
1.62 | Cc1cc(F)c(Nc2ccnc3c2C(=O)Nc2cc(CN4CCC(CCO)C4)ccc2N3)cc1O (racemic) [Example 182, rac-4-[(2-Fluoro-5-hydroxy-4-methylphenyl)amino]-8-{[3-(2-hydroxyethyl)pyrrolidin-1-yl]methyl}-6,11-dihydro-5H-pyrido[2,3-b][1,5]benzodiazepin-5-one]
1.38 | Cc1cc(F)c(Nc2ccnc3c2C(=O)Nc2cc(CN4CCCC(O)C4)ccc2N3)cc1O (single isomer, unassigned; ent-4) [Example 70, ent-4-[(2-Fluoro-5-hydroxy-4-methylphenyl)amino]-8-[(3-hydroxypiperidin-1-yl)methyl]-6,11-dihydro-5H-pyrido[2,3-b][1,5]benzodiazepin-5-one (Enantiomer 1)]
1.16 | Cc1cc(F)c(Nc2ccnc3c2C(=O)Nc2cc(CN4CCCC(O)C4)ccc2N3)cc1O (single isomer, unassigned; ent-4) [Example 71, ent-4-[(2-Fluoro-5-hydroxy-4-methylphenyl)amino]-8-[(3-hydroxypiperidin-1-yl)methyl]-6,11-dihydro-5H-pyrido[2,3-b][1,5]benzodiazepin-5-one (Enantiomer 2)]
1.16 | Cc1cc(F)c(Nc2ccnc3c2C(=O)Nc2cc(CN4CCCC(CCO)C4)ccc2N3)cc1O (single isomer, unassigned; ent-4) [Example 158, ent-4-[(2-Fluoro-5-hydroxy-4-methylphenyl)amino]-8-{[3-(2-hydroxyethyl)piperidin-1-yl]methyl}-6,11-dihydro-5H-pyrido[2,3-b][1,5]benzodiazepin-5-one (Enantiomer 1)]
1.28 | Cc1cc(F)c(Nc2ccnc3c2C(=O)Nc2cc(CN4CCCC(CCO)C4)ccc2N3)cc1O (single isomer, unassigned; ent-4) [Example 159, ent-4-[(2-Fluoro-5-hydroxy-4-methylphenyl)amino]-8-{[3-(2-hydroxyethyl)piperidin-1-yl]methyl}-6,11-dihydro-5H-pyrido[2,3-b][1,5]benzodiazepin-5-one (Enantiomer 2)]
0.793 | CCN(CCO)Cc1ccc2c(c1)NC(=O)c1c(Nc3cc(O)c(Cl)cc3F)ccnc1N2 [Example 90, 4-[(4-Chloro-2-fluoro-5-hydroxyphenyl)amino]-8-{[ethyl(2-hydroxyethyl)amino]methyl}-6,11-dihydro-5H-pyrido[2,3-b][1,5]benzodiazepin-5-one]
1.18 | Cc1ccc(O)cc1Nc1ccnc2c1C(=O)Nc1cc(CN[C@@H](CO)C(C)C)ccc1N2 [Example 150]
0.995 | Cc1cc(F)c(Nc2ccnc3c2C(=O)Nc2cc(CN4CC[C@H](O)C4)ccc2N3)cc1O [Example 207, 4-[(2-Fluoro-5-hydroxy-4-methylphenyl)amino]-8-{[(3S)-3-hydroxypyrrolidin-1-yl]methyl}-6,11-dihydro-5H-pyrido[2,3-b][1,5]benzodiazepin-5-one]
1.03 | Cc1cc(F)c(Nc2ccnc3c2C(=O)Nc2cc(CN4CC[C@@H](O)C4)ccc2N3)cc1O [Example 208, 4-[(2-Fluoro-5-hydroxy-4-methylphenyl)amino]-8-{[(3R)-3-hydroxypyrrolidin-1-yl]methyl}-6,11-dihydro-5H-pyrido[2,3-b][1,5]benzodiazepin-5-one]
1.01 | Cc1cc(F)c(Nc2ccnc3c2C(=O)Nc2cc(CN4CCC[C@H](O)C4)ccc2N3)cc1O [Example 223, 4-[(2-Fluoro-5-hydroxy-4-methylphenyl)amino]-8-{[(3S)-3-hydroxypiperidin-1-yl]methyl}-6,11-dihydro-5H-pyrido[2,3-b][1,5]benzodiazepin-5-one]
